What was measured:
schizophrenia patients [1] = conditions: handwriting dysfluency; for average normalized jerk (ANJ) score compared between medication groups: marker of TD/EPS, 9 handwriting tasks, dominant hand, 1, 2, 4 cm, versus other medications; for average normalized jerk (ANJ) score compared with healthy subjects: medication group versus normal healthy subjects
schizophrenia patients [2] = conditions: in vivo

Row | SMILES | average normalized jerk (ANJ) score compared between medication groups (schizophrenia patients [1]) | average normalized jerk (ANJ) score compared with healthy subjects (schizophrenia patients [1]) | correlation (r) of average normalized jerk (ANJ) with daily dose (schizophrenia patients [2])
1 | Cc1cc2c(s1)Nc1ccccc1N=C2N1CCN(C)CC1 [olanzapine] | significantly less abnormality than those treated with aripiprazole or risperidone | did not differ from normal healthy subjects | –
2 | Cc1nc2n(c(=O)c1CCN1CCC(c3noc4cc(F)ccc34)CC1)CCCC2 [risperidone] | significant group effect for risperidone versus quetiapine | significantly higher ANJ scores than healthy subjects | 0.78

Source: US20100152622A1, “MOTOR PHENOMENON MEASUREMENT” (priority 2007, published 2010)
